# AlphaSeq binding of Ab-14 heavy chain variants to a spike HR2 peptide

Antigen: PDVDLGDISGINAS, a 14-residue peptide of the SARS-CoV-2 spike HR2 region.

Ab-14 is the parent antibody, in scFv form: VH, then three GGGGS repeats, then VL. The light chain is unchanged in all variants.
VH: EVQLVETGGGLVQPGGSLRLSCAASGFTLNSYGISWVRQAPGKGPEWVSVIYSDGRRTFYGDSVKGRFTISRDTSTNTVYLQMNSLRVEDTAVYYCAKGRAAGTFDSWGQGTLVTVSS
VL: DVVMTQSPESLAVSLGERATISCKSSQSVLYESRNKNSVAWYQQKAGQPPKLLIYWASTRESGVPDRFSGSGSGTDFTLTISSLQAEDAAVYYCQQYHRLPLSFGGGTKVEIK

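The starting antibody came from a phage panning campaign against this peptide. Designed CDR sequences, proposed from the first random library and measured here. Group labels follow the data file (En: ensemble of fine-tuned language models; HC: hill climbing; Gen: genetic algorithm; Gibbs: Gibbs sampling; a sequence that several methods proposed may carry one label only). AlphaSeq pools MATa yeast showing the antibodies with MATalpha yeast showing the peptide. Pairs that bind mate more often; barcode pairs of the diploids are counted by sequencing. Each replicate has its own calibration line, from reference interactions of the BCL2 family. The assay was run in six technical replicates.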

Each variant is given by its three heavy chain CDRs, as the data file delimits them; those of the parent are GFTLNSYGIS, VIYSDGRRTFYGDSVK, GRAAGTFDS.
Variants here have more than six changes.
Values are apparent Kd, the geometric mean of the replicates that gave a signal; lower means stronger binding.
An entry "no signal" has no value in the source: the pair was not observed among the diploids in any replicate. This suggests poor binding but is not conclusive.
Order: sorted from the lowest average up, undetected variants last.
The authors averaged sequences with at least three values out of six and counted those with two or fewer as poor binders.
As a blank, each scFv also met three strains without target: over all heavy chain designs, 1% of these pairings were detected, typically at 120 nM and seldom below 7.0 nM. Also given: how often the same scFv was detected with the empty control strains.
A sequence measured in both rounds can read differently, since the two assays cover different ranges.

| CDR-H1 | CDR-H2 | CDR-H3 | group | Kd | replicates with signal | control signals |
|---|---|---|---|---|---|---|
| GFDLDEYGIS | VIYADGRRTFYQDSVK | GNVAGTFDS | En_HC | 91 pM | 6/6 | 0/18 |
| GFDLNEYGIS | VIYADGRRTFYADSVK | GTEAGTFNM | En_HC | 96 pM | 6/6 | 0/18 |
| GFDLNEYGIS | VIYADGLRTAYVDSVK | GNNAGTFDV | En_Gen | 160 pM | 6/6 | 0/18 |
| GFNLNEYGIS | VIYADGRRKFYADSVK | GNTAGTFDI | En_HC | 170 pM | 6/6 | 0/18 |
| GFDLNEYGIS | VIYADGQRTFYADSVK | GQLAGTFSV | En_HC | 180 pM | 6/6 | 0/18 |
| GFDLNEYGIS | VIYADGRRTAYSDSVK | GETAGTFDI | En_Gen | 210 pM | 6/6 | 1/18 |
| GFTLDEYGIS | VIYADGMRTFYADSVK | GNVAGTFDQ | En_HC | 230 pM | 6/6 | 0/18 |
| GFDLNEYGIS | VIYADGRRTYYADSVK | GNQAGTFDQ | En_HC | 270 pM | 6/6 | 0/18 |
| GFDLNEYGIS | VIYADGRRTFYADSVK | GQLAGTFSL | En_HC | 270 pM | 6/6 | 0/18 |
| GFDLNEYGIS | VIYADGRRTQYIDSVK | GEIAGTFDT | En_HC | 300 pM | 6/6 | 0/18 |
| GFDLNEYGIS | VIYADGMRTAYADNVK | GETAGTFDT | En_Gen | 300 pM | 6/6 | 0/18 |
| GFDLNEYGIS | VIYADGVRTFYVDSVK | GEVAGTFDV | En_HC | 300 pM | 6/6 | 0/18 |
| GFDLNEYGIS | VIYADGKRTYYADSVK | GGNAGTFDV | En_Gen | 300 pM | 6/6 | 1/18 |
| GFDLNEYGIS | VIYADGRRTFYSDSVK | GEVAGTFVS | En_HC | 310 pM | 6/6 | 0/18 |
| GFDLNEYGIS | VIYADGRRTFYADSVK | GNTAGTFDK | En_HC | 340 pM | 6/6 | 0/18 |
| GFDLNEYGIS | VIYADGRRTAYSDSVK | GNVAGTFDK | En_HC | 350 pM | 6/6 | 0/18 |
| GFDLNEYGIS | VIYADGVRTAYADSVK | GTVAGTFDL | En_Gen | 350 pM | 6/6 | 0/18 |
| GFDLEEYGIS | VIYADGRRTFYSDSVK | GEAAGTFDV | En_HC | 360 pM | 6/6 | 0/18 |
| GFDLNEYGIS | VIYADGVRTAYADDVK | GQVAGTFDI | En_Gen | 380 pM | 6/6 | 0/18 |
| GFDLNEYGIS | VIYADGRRTFYSDSVK | GQTAGTFDA | En_HC | 380 pM | 6/6 | 0/18 |
| GFNLNEYGIS | VIYADGRRTFYSDSVK | GEQAGTFDV | En_HC | 400 pM | 6/6 | 0/18 |
| GFDLNEYGIS | VIYADGKRTFYADSVK | GQNAGTFDL | En_HC | 410 pM | 6/6 | 0/18 |
| GFDLNEYGIS | VIYADGRRTAYIDSVK | GYNAGTFDS | En_HC | 420 pM | 6/6 | 0/18 |
| GFDLDEYGIS | VIYADGRRTAYADNVK | GNVAGTFDV | En_Gen | 430 pM | 6/6 | 0/18 |
| GFDLNEYGIS | VIYADGRRTAYADSVK | GQNAGTFDT | En_Gen | 430 pM | 6/6 | 0/18 |
| GFDLEDYGIS | VIYADGRRTAYSDSVK | GNVAGTFDV | En_Gen | 440 pM | 6/6 | 0/18 |
| GFDLNEYGIS | VIYADGRRTAYADSVK | GQVAGTFDL | En_Gen | 450 pM | 6/6 | 1/18 |
| GFDLNEYGIS | VIYADGKRSFYADSVK | GNVAGTFDV | En_Gen | 470 pM | 6/6 | 0/18 |
| GFDLNEYGIS | VIYADGVRTAYADSVK | GQVAGTFDI | En_Gen | 480 pM | 6/6 | 0/18 |
| GFDLNEYGIS | VIYADGRRTAYADSVK | GSNAGTFDI | En_Gen | 500 pM | 6/6 | 0/18 |
| GFDLNEYGIS | VIYADGQRTAYADNVK | GENAGTFDV | En_Gen | 510 pM | 6/6 | 0/18 |
| GFDLNEYGIS | VIYADGKRTAYADDVK | GNQAGTFDM | En_Gen | 540 pM | 6/6 | 2/18 |
| GFDLNEYGIS | VIYADGRRTYYDDSVK | GQLAGTFDL | En_HC | 570 pM | 6/6 | 2/18 |
| GFDLDEYGIS | VIYADGMRTAYADNVK | GENAGTFDT | En_Gen | 600 pM | 6/6 | 0/18 |
| GFDLNEYGIS | VIYADGFRTFYTDSVK | GEVAGTFDI | En_HC | 640 pM | 6/6 | 0/18 |
| GFDLDEYGIS | VIYADGMRTAYTDSVK | GNVAGTFDA | En_Gen | 650 pM | 6/6 | 0/18 |
| GFDLNEYGIS | VIYADGMRTAYADSVK | GANAGTFDI | En_Gen | 730 pM | 6/6 | 0/18 |
| GFDLNEYGIS | VIYADGKRTQYIDSVK | GEVAGTFDA | En_HC | 750 pM | 6/6 | 0/18 |
| GFDLEDYGIS | VIYADGRRTAYADSVK | GEAAGTFDL | En_HC | 1.2 nM | 6/6 | 1/18 |
| GFDLNEYGIS | VIYADGRRTAYADSVK | GKNAGTFDI | En_Gen | 1.2 nM | 6/6 | 0/18 |
| GFDLNEYGIS | VIYADGRRTFYVDSVK | GTNGGTFDV | En_HC | 1.3 nM | 6/6 | 1/18 |
| GFDLNEYGIS | VIYADGSRTFYSDSVK | GNVAGTFDS | En_HC | 1.3 nM | 6/6 | 0/18 |
| GFDLDEYGIS | VIYADGRRTAYSDSVK | GNNAGTFDI | En_Gen | 1.3 nM | 6/6 | 0/18 |
| GFDLNEYGIS | VIYADGKRTFYADSVK | GEIAGTFDF | En_HC | 1.4 nM | 6/6 | 0/18 |
| GFDLNEYGIS | VIYADGRRTAYADSVK | GEVAGTFDT | En_Gen | 1.5 nM | 6/6 | 1/18 |
| GFDLNEYGIS | VIYADGMRTQYADSVK | GEQAGTFDL | En_HC | 1.5 nM | 4/6 | 0/18 |
| GFDLNEYGIS | VIYADGVRTAYADKVK | GENAGTFDI | En_HC | 2.3 nM | 6/6 | 1/18 |
| GFNLNEYGIS | VIYADGHRSAYVDNVK | GHLGGTFSM | En_Gibbs | 2.7 nM | 6/6 | 0/18 |
| GFDLNEYGIS | VIYADGRRTFYSDSVK | GEVGGTFDG | En_HC | 2.9 nM | 6/6 | 0/18 |
| GFDLNEYGIS | VIYADGMRTAYADSVK | GENAGSFDV | En_Gen | 7.5 nM | 6/6 | 0/18 |
| GGQLDQYGIS | VIYADGVRTSYTNSVK | GVHAGTFMQ | En_Gibbs | 7.7 nM | 1/6 | 0/18 |
| GFDLNEYGIS | VIYADGRRTFYADSVK | GSEAGTFVM | En_HC | 23 nM | 4/6 | 0/18 |
| GMDLDEYGIS | VIYADGSRVFYVQDVK | GTLDVVGDV | En_Gibbs | 28 nM | 1/6 | 0/18 |
| GNDIDEYGIS | VIYADGQRTAYDEAVK | GTIAGSFFH | En_Gibbs | 140 nM | 1/6 | 0/18 |
| GFDLNDYGIS | VIYADGRRTAYADSVK | GEYAGTFDI | En_HC | 220 nM | 1/6 | 0/18 |
| GDDLEDYGIS | VIYADGRRTAYQESVK | GLYAGMIDV | En_Gibbs | 250 nM | 5/6 | 1/18 |
| GFNLDEYGIS | VIYADGYRRAYAQSVK | GYNSGTGVT | En_Gibbs | 34 µM | 1/6 | 1/18 |
| GFEIDEYGIS | VIYADGKRTSYNDTVK | GQLGNAFDL | En_Gibbs | no signal | 0/6 | 0/18 |
| GFDLNEFGIS | VIYADGRQTFYTDNVK | GGNQGTFVL | En_Gibbs | no signal | 0/6 | 1/18 |
| GFDLEKYGIH | VIYADGIRASYSDAVK | GDLSGTLYV | En_Gibbs | no signal | 0/6 | 2/18 |
| GFDLAEYGIS | VIYADGSRTAYNQNVK | GLKGDSYDI | En_Gibbs | no signal | 0/6 | 0/18 |
| GFNLDQYGIS | VIYADGQRTQYANDVK | GKYAGSMLS | En_Gibbs | no signal | 0/6 | 0/18 |
| GQSLDEYGIS | VIYADGSRTAYAKSVK | GLGGFVNIM | En_Gibbs | no signal | 0/6 | 0/18 |
| GFNIDEYGVS | VIYADGRRQYYADKVK | GHNLVMALV | En_Gibbs | no signal | 0/6 | 0/18 |
| FQLLEDYGIS | VIYADGKRQAYVNSVK | GEHAGTFDI | En_Gibbs | no signal | 0/6 | 0/18 |
| GFDINEYGIS | VIYADGTKTAYANTVK | GKYVGVFVD | En_Gibbs | no signal | 0/6 | 0/18 |
| GFSIDEYGIS | VIYADGTRTAYHDDVK | GAYDIVAVL | En_Gibbs | no signal | 0/6 | 0/18 |
| GENLDEYGIS | VIYADGVRSQYTDQVK | GVETGAVLE | En_Gibbs | no signal | 0/6 | 0/18 |
| GFNLKEYGIS | VIYADGVRAQYAESVK | GTYSSKFGM | En_Gibbs | no signal | 0/6 | 0/18 |
| GFKLDEYGIS | VIYADGHRVAYSQKVK | GDNVGAFFV | En_Gibbs | no signal | 0/6 | 0/18 |

For reference, 11 entries of the list once more:

| CDR-H1 | CDR-H2 | CDR-H3 | group | Kd | replicates with signal | control signals |
|---|---|---|---|---|---|---|
| GFDLNEYGIS | VIYADGQRTAYADNVK | GENAGTFDV | En_Gen | 510 pM | 6/6 | 0/18 |
| GFNLKEYGIS | VIYADGVRAQYAESVK | GTYSSKFGM | En_Gibbs | no signal | 0/6 | 0/18 |
| GFDLAEYGIS | VIYADGSRTAYNQNVK | GLKGDSYDI | En_Gibbs | no signal | 0/6 | 0/18 |
| GFDLNEYGIS | VIYADGRRTAYIDSVK | GYNAGTFDS | En_HC | 420 pM | 6/6 | 0/18 |
| GFDLNEYGIS | VIYADGMRTAYADSVK | GENAGSFDV | En_Gen | 7.5 nM | 6/6 | 0/18 |
| GFDLNEYGIS | VIYADGRRTQYIDSVK | GEIAGTFDT | En_HC | 300 pM | 6/6 | 0/18 |
| GFDLNEYGIS | VIYADGQRTFYADSVK | GQLAGTFSV | En_HC | 180 pM | 6/6 | 0/18 |
| GMDLDEYGIS | VIYADGSRVFYVQDVK | GTLDVVGDV | En_Gibbs | 28 nM | 1/6 | 0/18 |
| GFDLNEYGIS | VIYADGKRTFYADSVK | GQNAGTFDL | En_HC | 410 pM | 6/6 | 0/18 |
| GFDLNEYGIS | VIYADGVRTAYADDVK | GQVAGTFDI | En_Gen | 380 pM | 6/6 | 0/18 |
| GFDLNEYGIS | VIYADGRRTFYADSVK | GQLAGTFSL | En_HC | 270 pM | 6/6 | 0/18 |

Source: Li et al. 2023 (doi:10.1038/s41467-023-39022-2), MIT Lincoln Laboratory and A-Alpha Bio; data file from the FLAb repository.